Results on one molecule are retold here after patent US20080038220A1 (LABORATOIRES BESINS INTERNATIONAL, priority 2004, published 2008).

This data set can be described thus: Testosterone solubility by the increment method. Format: physicochemical. To be noted: water/ethanol mixture. On the procedure:
A known amount of solvent (2 mL) is stirred at 37° C. in a closed Erlenmeyer.

Consider `C[C@]12CC[C@H]3[C@@H](CCC4=CC(=O)CC[C@@]43C)[C@@H]1CC[C@@H]2O` [Testosterone], for which the Testosterone solubility reads like this: (95% ethanol (v/v) 56/44, 37° C.) 0.027 g/g; (95% ethanol (v/v) 63/37, 37° C.) 0.035 g/g; (95% ethanol (v/v) 74/26, 37° C.) 0.061 g/g; (95% ethanol (v/v) 84/16, 37° C.) 0.146 g/g; (95% ethanol (v/v) 86/14, 37° C.) 0.195 g/g; (95% ethanol (v/v) 100/0, 37° C.) 0.420 g/g.
